Hits are enriched below; roughly 16% of the tested compounds scored in any of these assays.
DT40 TDP1 no CPT = qHTS for Inhibitors of human tyrosyl-DNA phosphodiesterase 1 (TDP1): qHTS in cells in absence of CPT. DT40 Tdp1-/- hTDP1 cells, no CPT, ATP luminescence, 48 h. Potency, µM (series often up to 46.2 µM), without a hit: at the highest dose activity change, negative = growth inhibition, usual class: inhibitors. actives 15% (n = 420,000); also: potency is read from the fitted curve at half-maximal effect; % is scaled to controls: 0 for no effect and ±100 for the full control effect; nearly all actives have a fitted effect of over 55% in size
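Growth kinetics read by CellTiter-Glo luminescence after ≥48 hr at 37 °C. Cells: DT40 Tdp1-/- stably carrying human TDP1, 400 per well, compound exposure in the absence of CPT (DMSO vehicle).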
uPA surface inh = blocks generation of uPA at the cell surface; AID 540303; cell surface uPA generation assay, qHTS; Potency, µM (series often up to 38.3 µM), for the others: at the top dose activity change, negative = inhibition, most hits filed as inhibitors; actives 0.31% (n = 330,000); active = well fitted inhibition curve with a large enough effect; inconclusive = small, poorly fitted or top-dose-only effect; inactive = no such curve, though single readings can be large or run the other way; tested in mouse RAW 264.7 cells; also: potency is read from the fitted curve at half-maximal effect; % is scaled to controls: 0 for no effect and ±100 for the full control effect; nearly all actives have a fitted effect of over 55% in size
miR-21 reporter = miR-21 reporter, rising signal; HeLa miR-21 FLuc reporter, luciferase, 48 h; Potency, µM (doses to about 38.3 µM), for inactives: at the highest dose reporter change, positive = more light; 340,000 tested, under 10 active; AID 2288; active = well fitted rising curve with a large enough effect; inconclusive = small, poorly fitted or top-dose-only effect; inactive = no such curve, though single readings can be large or run the other way;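 further: % of control where 0% means no effect; miR-21 action dims this reporter so a rising signal means less miR-21 action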
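HeLa miR-21-FLuc reporter line, endogenous miR-21; 2000 cells/well in DMEM/10% FBS; compound titration up to ~40uM final, 48 h, 37 degree Celsius; luciferase detection reagent, 15 min lysis, CCD luminescence.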
TDP1 block = TDP1 (human) enzyme inhibition | Q9NUW8 | Potency, µM (highest dose often 130 µM), inactives show at the top dose activity change, negative = inhibition, actives largely listed as inhibitors | recombinant TDP1, AlphaScreen DNA substrate cleavage | AID 485290 | actives 0.28% (n = 350,000); also: potency is read from the fitted curve at half-maximal effect; % is scaled to controls: 0 for no effect and ±100 for the full control effect; nearly all actives have a fitted effect of over 40% in size
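AlphaScreen read-out: signal falls as enzyme removes the 3' tyrosine-FITC from a 5'-biotinylated DNA oligo (15 nM, 5 min, RT). Enzyme was E. coli-made recombinant Tdp1 at 1 nM, exposed to compound for 15 min beforehand; beads 10 ug/ml, 10 min.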
DT40 TDP1 CPT = DT40-hTDP1 cell growth loss with CPT. chicken DT40 Tdp1-/-;hTDP1 cells + 20 nM CPT, ATP luminescence, 48 h. Potency, µM (top dose mostly 46.2 µM), without a hit: top-dose activity change, negative = growth inhibition, most hits filed as inhibitors. actives 12% (n = 420,000). AID 686979; also: potency is read from the fitted curve at half-maximal effect; % is scaled to controls: 0 for no effect and ±100 for the full control effect; nearly all actives have a fitted effect of over 55% in size
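Chicken DT40 Tdp1-/- cells complemented with human TDP1, 400 cells/well, exposed to compounds plus 20 nM camptothecin for at least 48 h at 37 C; viability read as ATP content by CellTiter-Glo luminescence.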
Starred values were filed as active, the others as inactive; ? = inconclusive; · = no result. Unless noted, calls follow the shape of the dose curve; as a rule, active = well fitted curve in the direction sought with a large enough effect; inconclusive = small, poorly fitted or top-dose-only effect, or another doubt; inactive = no such curve, though single readings can be large; an effect the other way counts as inactive or inconclusive.

Results follow in this order: DT40 TDP1 no CPT, uPA surface inh, miR-21 reporter, TDP1 block, DT40 TDP1 CPT
Nc1ccc(N2CCN(c3cccc(Cl)c3)CC2)cc1
→ 14.6µM*, -8.5%, -27.8%, -3.8%, 13µM*
O=C(CCC(=O)N1CCN(c2cccc(Cl)c2)CC1)c1cccs1
→ 18.4µM*, 1.0%, ·, -9.5%, ?
Cn1cc(CC(=O)N2CCN(c3ccccc3F)CC2)c2ccccc21
→ ?, 3.0%, -16.6%, 3.9%, ?
O=C(CCNC(=O)Cn1ccc2ccccc2c1=O)NCCCN1CCN(c2ccccc2F)CC1
→ -9.7%, -2.2%, -7.4%, 7.3%, -24.3%
CC(C)(C)c1ccc(C(=O)NNC(=O)c2cccc(-n3cnnn3)c2)cc1
→ -5.7%, 2.1%, -11.1%, ·, -19.4%
CCNC(=O)C1(C)CCN(C(=O)c2ccc3c(c2)CCO3)C1 (stereo unspecified)
→ -8.3%, ·, ·, ·, ?
O=C(CN1C(=O)c2ccccc2S1(=O)=O)N1CCN(c2cccc(Cl)c2)CC1
→ -26.1%, -2.0%, ·, ·, -21.9%
Clc1cccc(N2CCN(CCCN3CCN(c4ccccc4)CC3)CC2)c1
→ ?, -3.8%, ·, ·, 25.9µM*
O=C(CCC(=O)N1CCN(c2cccc(Cl)c2)CC1)N1CCN(c2ccccc2)CC1
→ 8.2µM*, -10.7%, 12.3%, 5.1%, 18.4µM*
O=C(CCN1C(=O)c2ccccc2S1(=O)=O)N1CCN(c2cccc(Cl)c2)CC1
→ 16.4µM*, 2.8%, ·, 1.1%, ?
O=C(Cc1c(F)cccc1Cl)OCC(=O)N1CCN(c2ccccc2)CC1
→ ?, -12.4%, ·, 0.8%, 18.4µM*
c1ccc(CCCN2CCN(c3ccccc3)CC2)cc1
→ -7.0%, 1.0%, -7.2%, ·, 12.8%
O=C(CCCN1C(=O)/C(=C\c2cccs2)SC1=S)Nc1cc([N+](=O)[O-])ccc1O
→ ?, -9.6%, -0.2%, 4.1%, ?
Cc1ccccc1C
→ ·, ·, ·, 16.1%, ·
CCOc1ccccc1CNC(=O)CCCn1ccc2cc(S(=O)(=O)N3CCCC3)ccc21
→ 20.6µM*, -8.9%, 10.4%, 1.2%, 23.1µM*
COc1ccc(CNC(=O)Cn2ccc3cc(S(=O)(=O)N4CCCCC4)ccc32)c(OC)c1
→ -81.0%, ·, 4.3%, 2.8%, 23.1µM*
O=C(CCn1ccc2cc(S(=O)(=O)N3CCCC3)ccc21)NCc1ccccc1Br
→ ?, ·, 6.7%, -5.6%, ?
CCOc1ccccc1CNC(=O)Cn1ccc2cc(S(=O)(=O)N3CCCC3)ccc21
→ 23.1µM*, -8.1%, 9.3%, 2.3%, 18.4µM*
CC(C)CCN(C(=O)C1CCCC1)c1c(N)n(Cc2ccccc2)c(=O)[nH]c1=O
→ 6.6%, 10.2%, ·, ·, -20.1%
CCCc1cc(=O)oc2cc(C)c3c(-c4ccccc4)coc3c12
→ ?, ·, -15.4%, -11.0%, ?
O=C1C=C(c2ccc(Oc3ccccc3)cc2)C[C@@H](c2ccc3c(c2)OCO3)C1
→ -20.3%, 21.1%, ·, 0.4%, ?
Nc1cc2nc[nH]c2cc1N
→ ?, 2.5%, -50.2%, 79.4µM*, ?
Cn1c(=O)n(C)c2cc3[nH]cnc3cc21
→ 1.8%, 1.7%, 4.6%, ·, -11.1%
Cc1ccc([C@H]2C[C@H](n3cc(C4CC4)nn3)[C@@H](O)CN2C(=O)c2cccs2)cc1
→ -2.4%, ·, ·, ·, -5.6%
N#CC1c2ccccc2-c2ccccc2N1C(=O)c1ccccc1 (stereo unspecified)
→ 5.8µM*, ·, ·, ·, 5.8µM*
CC(C)(C)N(Cc1ccc2c(c1)OCO2)C(=O)/C=C\S(=O)c1ccccc1 (stereo unspecified)
→ 3.66µM*, -4.4%, ·, ·, 5.17µM*
CCN(Cc1ccc2c(c1)OCO2)C(=O)/C=C/c1cccc(Br)c1
→ ?, 1.3%, -14.7%, -6.3%, -1.6%
COC(=O)Cc1c(C)nc(SCc2ccccc2)[nH]c1=O
→ ?, -3.3%, -3.7%, ·, -15.5%
Clc1ccc(-c2cn3c(n2)-c2ccccc2C3)cc1Cl
→ ?, 10µM*, -16.6%, 5.6%, ?
CCc1ccc(NC(=O)c2cc3c(COC(C)=O)cnc(C)c3oc2=O)cc1
→ ?, ·, -18.2%, 3.8%, ?

Among those listed so far, 2 have bromine:
Results follow in this order: DT40 TDP1 no CPT, uPA surface inh, miR-21 reporter, TDP1 block, DT40 TDP1 CPT
O=C(CCn1ccc2cc(S(=O)(=O)N3CCCC3)ccc21)NCc1ccccc1Br
→ ?, ·, 6.7%, -5.6%, ?
CCN(Cc1ccc2c(c1)OCO2)C(=O)/C=C/c1cccc(Br)c1
→ ?, 1.3%, -14.7%, -6.3%, -1.6%

Single records (already shown).
`CC(C)CCN(C(=O)C1CCCC1)c1c(N)n(Cc2ccccc2)c(=O)[nH]c1=O` in the list: DT40 TDP1 no CPT = 6.6%; uPA surface inh = 10.2%; miR-21 reporter = ·; TDP1 block = ·; DT40 TDP1 CPT = -20.1%
`O=C(CCC(=O)N1CCN(c2cccc(Cl)c2)CC1)c1cccs1` in the list: DT40 TDP1 no CPT = 18.4µM*; uPA surface inh = 1.0%; miR-21 reporter = ·; TDP1 block = -9.5%; DT40 TDP1 CPT = ?

(more compounds)
Results follow in this order: DT40 TDP1 no CPT, uPA surface inh, miR-21 reporter, TDP1 block, DT40 TDP1 CPT
COc1ccc(-c2nnc(SCc3nc4ccccc4s3)n2C(C)C)cc1
→ 20.6µM*, -5.5%, -41.7%, -1.1%, ?
COc1ccc(Br)cc1S(=O)(=O)Nc1ccc(Cl)cn1
→ -6.0%, 2.5%, -4.8%, 3.2%, 31.9%
CCOC(=O)c1cc(S(=O)(=O)N2CCN(c3cccc(C)c3C)CC2)[nH]n1
→ ?, ·, 12.7%, 8.9%, ?
CCOC(=O)c1cc(S(=O)(=O)N2CCN(c3ccc(C)cc3C)CC2)[nH]n1
→ 20.6µM*, ·, 24.0%, 4.1%, 9.2µM*
CCOC(=O)c1c(C)oc2nc(C)nc(N3CCN(c4ccc(C)cc4C)CC3)c12
→ ?, ·, -1.2%, 4.2%, -7.7%
CCOC(=O)c1c(C)oc2ncnc(N3CCN(c4ccccc4OC)CC3)c12
→ 16.4µM*, ·, 5.9%, 0.0%, ?
CCOC(=O)c1c(C)oc2ncnc(N3CCN(c4cccc(Cl)c4)CC3)c12
→ 16.4µM*, ·, -0.9%, 6.4%, ?
CCOC(=O)c1c(C)oc2ncnc(N3CCN(c4ccc(C)cc4C)CC3)c12
→ 23.1µM*, ·, 1.0%, 1.3%, 20.6µM*
COc1ccc(N2CCN(C(=O)CCC(=O)N3CC(C)Oc4ccccc43)CC2)cc1 (stereo unspecified)
→ ?, -8.5%, 10.8%, ·, ?
O=C(Cn1ncc2c(=O)oc3ccccc3c21)NCCc1ccsc1
→ ?, 1.8%, -3.3%, -3.3%, -7.9%
CCOC(=O)c1noc2ncnc(N3CCN(c4ccccc4OC)CC3)c12
→ 2.91µM*, ·, -9.1%, 11.0%, 4.61µM*
CCOC(=O)c1noc2ncnc(NCc3ccccc3OC)c12
→ -15.6%, ·, -0.1%, 4.5%, ?
COc1ccc(CN(C)c2ccc(-c3nc(C)no3)cc2[N+](=O)[O-])cc1
→ 8.2µM*, ·, -7.3%, 8.6%, 10.3µM*
Cc1noc(-c2ccc(N(C)Cc3ccccc3)c([N+](=O)[O-])c2)n1
→ 16.4µM*, ·, -17.1%, 8.6%, 20.6µM*
CCc1nc(N)nc(N)c1-c1ccc(N(C)Cc2ccccc2)c([N+](=O)[O-])c1
→ 0.651µM*, -12.8%, ·, ·, 4.61µM*
Cc1noc(-c2ccc(-c3noc(-c4ccc([N+](=O)[O-])c(C)c4)n3)cc2)n1
→ -2.0%, ·, -5.9%, 5.5%, -4.5%
CCc1nc(N)nc(N)c1-c1ccc(Cl)cc1
→ 0.651µM*, ?, 16.7%, 2.7%, 0.944µM*
CCc1nc(N)c(C#N)c(-c2ccncc2)c1C
→ 5.8%, ·, -10.5%, 1.9%, -22.7%
CCOC(=O)c1cc(NC(=O)c2ccc(F)cc2)c(=O)n2c1oc1ccc(Cl)cc12
→ ·, ·, -9.7%, 1.1%, ·
CCN(CC)c1ccc(-c2nc(-c3ccco3)no2)cc1[N+](=O)[O-]
→ 25.9µM*, ·, 0.4%, 0.0%, ?
Cc1cc(C(=O)N/N=C/c2ccc(N(C)C)o2)cs1
→ 16.4µM*, -20.9%, -5.0%, -6.8%, 23.1µM*

Assay outcomes from PubChem BioAssay.
